Among the data in PubChem BioAssay AID602346 (Broad Institute, 2012) are inhibition values, retold here.

Each structure is given as a SMILES string. The list shows a part of the results, in another mix than the full data. Some tests of the compounds listed are not included; inactive here does not mean inactive elsewhere. The source made the active and inactive calls. No stated cut-off is given here; in the data, active means inhibition above about 50% (passing the limit was not always enough); inconclusive means no clear call, values can overlap the other calls; inactive means below about 31%.

The assay is described as follows: HIV Vif self-association inhibitors, primary screen, imaging, HEK293T, single point (AID 602346). The conditions noted are these: HEK293T cells, Vif self-association by quenched fluorescence, 24 h, at 7.49 µM, stronger effect = higher value.
`CC(C)Oc1ccc(C(=O)NCC2(N(C)C)CCCCC2)cc1`: the inhibition was inactive: 1.37%.

For the compound `O=C(OCCN1CCCC1)C(O)(c1ccccc1)c1ccccc1`, the inhibition was inactive: 1.11%. As to `CN(C)c1cccc(C(=O)NCC2(N(C)C)CCCCC2)c1`, the inhibition is inactive: 2.69%. As for `C=C(C)C#CC(O)(C(=O)OC1CCN(C)CC1)c1ccccc1` (centres undefined), the inhibition was inactive: -2.37%. Take `COc1ccc(Br)c(C(=O)NCC2(N3CCCCC3)CCCCC2)c1`: the inhibition is inactive: -5.49%. In the case of `O=C(OC1CN2CCC1CC2)C(CO)(c1ccccc1)c1ccccc1` (centres undefined) it was inactive: -2.32%; in that of `O=C(NCC1(N2CCCCC2)CCCCC1)c1cccc(Cl)c1`, inactive: -3.14%.

Turning to `COc1cccc(C(=O)NCC2(N3CCCCC3)CCCCC2)c1`, the inhibition is inactive: 5.98%.

`COc1ccc(Cl)cc1C(=O)NCC1(N(C)C)CCCCC1`: the inhibition was inactive: -4.26%. For `CN(C)C1(CNC(=O)c2ccc(Br)cc2)CCCCC1` the value was inactive: 2.36%; for `COc1ccc(C(=O)NCC2(N(C)C)CCCCC2)cc1`, inactive: 4.08%; for `Cc1cc(C(=O)NCC2(N3CCCCC3)CCCCC2)ccc1[N+](=O)[O-]`, inactive: -9.72%. As to `CCN1CCCC(OC(=O)C2(O)c3ccccc3C=Cc3ccccc32)C1` (centres undefined), the inhibition is inactive: 4.26%. In the case of `O=C(NCC1(N2CCCCC2)CCCCC1)c1cccc(Br)c1` it was inactive: -3.59%; in that of `C=CCN1CCN(CCOC(=O)C(O)(c2ccccc2)c2ccccc2)CC1`, inactive: 1.97%. In the case of `O=C(NCC1(N2CCCCC2)CCCCC1)c1cc(F)c(F)cc1Cl` it was inactive: 5.02%. For `Cc1ccccc1C(=O)NCC1(N2CCCCC2)CCCCC1` the value was inactive: 0.813%. As for `CN(C)C1CCCC1OC(=O)C(O)(c1ccccc1)c1ccccc1` (centres undefined), the inhibition is inactive: 11.9%.

As for `CN(C)c1ccc(C(=O)NCC2(N(C)C)CCCCC2)cc1`, the inhibition was inactive: 4.3%. In the case of `Cc1ccc(C(=O)NCC2(N3CCCCC3)CCCCC2)cc1` it was inactive: -1.85%; in that of `CCN(CC)CC(C)C(C)OC(=O)C(O)(c1ccccc1)c1ccccc1` (centres undefined), inactive: 5%; in that of `CC(C)N1C(=O)CC2(CCN(CCOC(=O)C(O)(c3ccccc3)c3ccccc3)CC2)C1=O`, inactive: -0.947%.

Consider `CN1[C@@H]2CC[C@H]1CC(OC(=O)C(O)(c1ccccc1)c1ccccc1)C2` (some centres undefined), for which the inhibition was inactive: 9.4%. In the case of `O=C(NCC1(N2CCCCC2)CCCCC1)c1cc([N+](=O)[O-])ccc1Cl` it was inactive: 7.81%.
